Measurements from patent US20070004724A1, “(+)-(2S,3s)-2-(3-chlorophenyl)-3,5,5-trimethyl-2-morpholinor for treating anxiety” (priority 2003, published 2007).
Counter-ions that a name gives are not always drawn. Like-named read-outs stand apart in the source and are kept apart here.

Sequences of proteins named here, by UniProt entry; tags and fusion partners are left off.
UniProt Q01959, whole entry: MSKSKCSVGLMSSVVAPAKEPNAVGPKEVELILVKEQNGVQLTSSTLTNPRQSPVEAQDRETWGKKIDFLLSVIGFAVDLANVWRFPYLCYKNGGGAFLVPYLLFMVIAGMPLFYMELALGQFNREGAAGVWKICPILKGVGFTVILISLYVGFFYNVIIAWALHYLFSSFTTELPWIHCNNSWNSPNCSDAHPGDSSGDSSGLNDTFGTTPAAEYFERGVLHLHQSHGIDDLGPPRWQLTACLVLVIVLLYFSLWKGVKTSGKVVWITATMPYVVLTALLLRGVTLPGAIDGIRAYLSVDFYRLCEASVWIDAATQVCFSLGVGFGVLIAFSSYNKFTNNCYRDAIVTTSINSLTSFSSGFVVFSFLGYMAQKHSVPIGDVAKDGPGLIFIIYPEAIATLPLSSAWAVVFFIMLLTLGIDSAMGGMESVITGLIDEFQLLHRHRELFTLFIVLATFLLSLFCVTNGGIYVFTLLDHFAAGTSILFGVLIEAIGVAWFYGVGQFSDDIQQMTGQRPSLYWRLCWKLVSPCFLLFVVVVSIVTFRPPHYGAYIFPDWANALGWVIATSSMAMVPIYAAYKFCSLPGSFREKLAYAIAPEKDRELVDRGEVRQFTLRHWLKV
UniProt P31645, whole entry: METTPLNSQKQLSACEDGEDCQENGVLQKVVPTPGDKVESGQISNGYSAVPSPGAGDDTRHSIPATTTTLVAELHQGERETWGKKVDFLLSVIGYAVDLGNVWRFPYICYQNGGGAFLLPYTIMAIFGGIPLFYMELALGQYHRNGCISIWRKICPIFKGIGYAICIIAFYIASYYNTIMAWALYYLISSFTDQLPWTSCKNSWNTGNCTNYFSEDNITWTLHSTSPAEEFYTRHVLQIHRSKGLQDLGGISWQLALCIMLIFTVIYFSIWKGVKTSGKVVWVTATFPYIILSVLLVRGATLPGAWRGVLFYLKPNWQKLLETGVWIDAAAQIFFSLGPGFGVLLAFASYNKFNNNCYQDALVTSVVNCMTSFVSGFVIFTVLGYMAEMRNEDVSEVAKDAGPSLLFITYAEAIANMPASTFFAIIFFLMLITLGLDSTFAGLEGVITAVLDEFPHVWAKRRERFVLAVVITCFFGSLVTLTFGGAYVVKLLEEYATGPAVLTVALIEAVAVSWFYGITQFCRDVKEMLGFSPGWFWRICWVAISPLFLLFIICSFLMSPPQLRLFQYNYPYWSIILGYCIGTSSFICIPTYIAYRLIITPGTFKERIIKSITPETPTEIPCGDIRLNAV

What was measured:
[1] = target: T1, human dopamine transporter (hDAT) (Homo sapiens, UniProt Q01959); experiment: Functional reuptake inhibition, CHO-K1/hDAT cells; format: cell-based
T1 construct: expressed in transfected cells; host or cells: CHO-K1 cells
Protocol: Reduction of [^3H]Dopamine uptake by 50 percent or more (≧50%) relative to vehicle controls indicates significant inhibitory activity.
Compounds were screened at 10, 1, 0.1, 0.01 and 0.001 μM. […] Radioactivity retained on the filters was determined by scintillation counting overnight using a Packard scintillation counter.

[2] = target: T2, human serotonin transporter (hSERT) (Homo sapiens, UniProt P31645); experiment: Functional reuptake inhibition, HEK-293/hSERT cells; format: cell-based
T2 construct: expressed in transfected cells; host or cells: HEK-293 cells
Protocol: Three separate cell-lines expressing human monoamine transporters for dopamine (hDAT) noradrenaline (hNET) and serotonin (hSERT) were used to measure the functional reuptake inhibiting properties of the compound of formula (I) (as its hydrochloride salt). The following methods were utilised.
Human serotonin transporter (hSERT): HEK-293/hSERT cells (5×10^4 cells/tube) expressing the human serotonin transporter (hSERT) were added into the minitube on 96-tube holder prior to assay. Cells were preincubated with test compound or vehicle in modified Tris-HEPES buffer pH 7.1 at 25° C. for 20 minutes, then 65 nM [^3H]Serotonin was added to make the total volume to 200 μl and further incubated for 10 minutes. Cells were then washed by filtration through cell harvester four times with PBS buffer containing 0.1% BSA and the GF/B filter was counted to determine [^3H]Serotonin uptake. Non-specific signal was determined in the presence of 10 μM fluoxetine. […]
Compounds were screened at 10, 1, 0.1, 0.01 and 0.001 μM. These same concentrations were concurrently applied to a separate group of untreated cells and evaluated for possible compound-induced cytotoxicity only if significant inhibition of uptake was observed. Radioactivity retained on the filters was determined by scintillation counting overnight using a Packard scintillation counter.

## C[C@@H]1NC(C)(C)CO[C@@]1(O)c1cccc(Cl)c1 [Formula (I). HCl, (+)-(2S,3S)-2-(3-chlorophenyl)-3,5,5-trimethyl-2-morpholinol hydrochloride]
[1]; [3H]Dopamine uptake, mean±SEM, n=3, read-out: hDAT IC50
  IC50: 440 ± 10 nM
[1]; reuptake inhibition, read-out: pIC50 hDAT (converted)
  IC50: 437 nM
[2]
  IC50: > 10 µM
